Tests used:
[1] = Temperature stability at 70° C., RP-HPLC; assay type: physicochemical; conditions: non-reducing conditions, 70° C. for 1 hour
Method: (§1) This example describes peptide stability in the presence of pepsin, trypsin, a reducing agent, or elevated temperature. Peptides were first suspended in 500 µl of ddH2O to a stock concentration of 2 mg/ml. […] These reactions were then quenched with 5 μg of soybean trypsin inhibitor (I) and, in some cases, 10 mM dithiothreitol (DTT). […] Temperature stability was tested by incubating peptides in non-reducing conditions at 70° C. for 1 hour. Stability was evaluated by RP-HPLC.

pepsin = assay: Peptide stability in the presence of pepsin, RP-HPLC; assay type: in vitro ADME; conditions: 20 μg pepsin, pH 1.05, 30 minutes at 37.5° C.
Method: as §1

[2] = Peptide stability to a reducing agent (DTT), RP-HPLC; assay type: physicochemical; conditions: 10 mM DTT in PBS, room temperature, 30 minutes
Method: as §1

trypsin = assay: Peptide stability in the presence of trypsin, RP-HPLC; assay type: in vitro ADME; conditions: 5 μg trypsin, pH 7.0, 30 minutes at 37.5° C.
Method: as §1

Row | Sequence | Temperature (70° C.) [1] | Pepsin (pepsin) | Reduction [2] | Trypsin (trypsin)
1 | GSDCVRFWGKCSQTSDCCPHLACKSKWPRNICVWDGSVG [SEQ ID NO: 14] | Resistant | Not Resistant | Not Resistant | Not Resistant
2 | GSGHACYRNCWREGNDEETCKERC [SEQ ID NO: 40] |  |  | Not Resistant | Partially Resistant

Source: patent publication US20200330603A1, “PEPTIDES FOR RENAL THERAPY” (FRED HUTCHINSON CANCER RESEARCH CENTER, priority 2015, published 2020)
